Data taken from ChEMBL document CHEMBL2150997, “Profiling of a prescription drug library for potential renal drug-drug interactions mediated by the organic cation transporter 2” (J Med Chem, 2011).
pIC50: −log10 of the molar value.

Molecular target: T1, Multidrug and toxin extrusion protein 2 (Homo sapiens, UniProt Q86VL8)
T1 sequence (Q86VL8 whole entry): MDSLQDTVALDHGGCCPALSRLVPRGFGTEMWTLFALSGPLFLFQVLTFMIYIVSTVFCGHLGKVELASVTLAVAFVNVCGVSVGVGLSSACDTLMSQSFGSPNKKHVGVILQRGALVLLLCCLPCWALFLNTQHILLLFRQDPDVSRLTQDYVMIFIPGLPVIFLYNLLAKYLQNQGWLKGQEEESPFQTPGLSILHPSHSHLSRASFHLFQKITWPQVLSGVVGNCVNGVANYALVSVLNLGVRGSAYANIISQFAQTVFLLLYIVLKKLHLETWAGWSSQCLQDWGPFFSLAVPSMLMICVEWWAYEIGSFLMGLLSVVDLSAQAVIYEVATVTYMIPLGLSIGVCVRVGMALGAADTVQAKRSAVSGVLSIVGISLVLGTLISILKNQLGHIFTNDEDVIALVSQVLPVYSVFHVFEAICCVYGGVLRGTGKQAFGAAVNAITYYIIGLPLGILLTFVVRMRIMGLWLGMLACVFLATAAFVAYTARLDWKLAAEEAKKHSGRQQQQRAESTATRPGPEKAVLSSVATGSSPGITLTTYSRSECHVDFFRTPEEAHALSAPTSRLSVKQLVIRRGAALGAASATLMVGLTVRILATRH

Compound: Cc1nccn1CC1CCc2c(c3ccccc3n2C)C1=O (stereo unspecified) [ONDANSETRON]
- pIC50: 5.16
